Source: patent US7976880B2, “Pregnane glycoside compositions and Caralluma extract products and uses thereof” (priority 2003, dated 2011)

System: subjects
Experiment: Toxicity and side effects of daily dosages in subjects
Conditions: dosages of 10 mg to 1500 mg per day

caratuberside
Toxicity or side effects: do not exhibit any toxicity or side effects except for the transient effects experienced by some subjects
